Literature values in patent US8759367B2, “Compounds and methods for the prevention and treatment of cancer” (The Wistar Institute, priority 2010, dated 2014).

Test system: GLI1-driven reporter activity mediated by exogenous SHH (Shh-light2 cells)
Conditions: SHH-Light2 cells treated with recombinant SHH; Taipale, et al. (2000); cited from earlier work

For CC1=C2C[C@H]3[C@@H](CC=C4C[C@@H](O)CC[C@@]43C)[C@@H]2CC[C@]12O[C@@H]1C[C@H](C)CN[C@H]1[C@H]2C [cyclopamine], the “SHH-induced activation of GLI-dependant firefly luciferase” value is listed as “inhibited”.
